In ChEMBL document CHEMBL1145190, “CoMFA and CoMSIA analyses of Pneumocystis carinii dihydrofolate reductase, Toxoplasma gondii dihydrofolate reductase, and rat liver dihydrofolate reductase” (J Med Chem, 2005):
pIC50: −log10 of the molar value.

Biological target: T1, Bifunctional dihydrofolate reductase-thymidylate synthase (Toxoplasma gondii, UniProt Q07422)
T1 sequence (Q07422 whole entry): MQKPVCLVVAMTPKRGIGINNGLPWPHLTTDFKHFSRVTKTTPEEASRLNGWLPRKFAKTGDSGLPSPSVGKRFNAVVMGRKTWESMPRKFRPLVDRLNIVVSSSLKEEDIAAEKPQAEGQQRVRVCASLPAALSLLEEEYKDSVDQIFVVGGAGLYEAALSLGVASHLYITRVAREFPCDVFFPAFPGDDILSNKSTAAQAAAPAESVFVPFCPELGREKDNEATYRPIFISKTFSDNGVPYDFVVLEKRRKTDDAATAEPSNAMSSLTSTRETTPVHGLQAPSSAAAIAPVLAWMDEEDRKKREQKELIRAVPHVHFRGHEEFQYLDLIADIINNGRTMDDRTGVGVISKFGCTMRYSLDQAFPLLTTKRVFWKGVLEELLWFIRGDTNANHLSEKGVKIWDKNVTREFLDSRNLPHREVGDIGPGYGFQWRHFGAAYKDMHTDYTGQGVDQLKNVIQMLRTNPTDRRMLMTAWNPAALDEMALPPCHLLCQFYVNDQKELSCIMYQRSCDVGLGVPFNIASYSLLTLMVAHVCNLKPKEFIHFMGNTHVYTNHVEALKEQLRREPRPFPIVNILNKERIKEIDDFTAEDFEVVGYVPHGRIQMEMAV
Experiment: Inhibition of Toxoplasma gondii dihydrofolate reductase

Q: With `Nc1nc(N)c2c(CSc3ccc4ccccc4c3)coc2n1` as the molecule, how does the pIC50 read?
A: Its pIC50 is 4.49.
